From US20190113512A1 (MIT, published 2019)

How the values were obtained:
[1] = biological target: streptavidin Alexa Fluor 647 (UniProt P22629 37-163)
[2] = biological target: T1, human interleukin-6 (IL-6) (human, UniProt P05231 30-212); experiment: yeast-surface display flow cytometry, 0.1% BSA/PBS
T1 construct: also called Human IL-6

B1: rcSso7d.SA-CBD (designed binder)
chain: MGSSHHHHHHSSGLVPRGSHMATVKFTYQGEEKQVDISKIKIVARDGQYIDFKYDEGGGAYGYGWVSEKDAPKELLQMLEKQGGGGSGGGGSGGGGSPVSGNLKVEFYNSNPSDTTNSINPQFKVTNTGSSAIDLSKLTLRYYYTVDGQKDQTFWCDHAAIIGSNGSYNGITSNVKGTFVKMSSSTNNADTYLEISFTGGTLEPGAHVQIQGRFAKNDWSNYTQSNDYSFKSASQFVEWDQVTAYLNGVLVWG
- EC50 (read off the curve) [1]: ~3000 nM

B2: rcSso7d.IL6.1 (designed binder)
chain: MATVKFTYQGEEKQVDISKIKIVGRHGQWIYFWYDEGGGANGNGWVSEKDAPKELLQMLEKQ
- binding result [2]: binds

B3: rcSso7d.IL6.2 (designed binder)
chain: MATVKFTYQGEEKQVDISKIKIVGRHGQWIYFWYDEGGGADGNGWVSEKDAPKELLQMLEKQ
- binding result [2]: binds

B4: rcSso7d.IL6.3 (designed binder)
chain: MATVKFTYQGEEKQVDISKIKIVGRHGQWIYFWYDEGGGAYGNGWVSEKDAPKELLQMLEKQ
- binding result [2]: binds

B5: rcSso7d.IL6.4 (designed binder)
chain: MATVKFTYQGEEKQVDISKIKIVGRSGQWIYFWYDEGGGAWGNGWVSEKDAPKELLQMLEKQ
- binding result [2]: binds

B6: rcSso7d.IL6.5 (designed binder)
chain: MATVKFTYQGEEKQVDISKIKIVGRWGQWIYFWYDEGGGASGNGWVSEKDAPKELLQMLEKQ
- binding result [2]: binds

B7: rcSso7d.IL6.6 (designed binder)
chain: MATVKFTYQGEEKQVDISKIKWVRRDGQIIYFNYDEGGGAWGWGDVSEKDAPKELLQMLEKQ
- binding result [2]: binds

B8: rcSso7d.IL6.7 (designed binder)
chain: MATVKFTYQGEEKQVDISKIKWVRRWGQWIYFNYDEGGGAWGWGDVSEKDAPKELLQMLEKQ
- binding result [2]: binds
